Results published in BindingDB's records for doi:10.1111/j.1471-4159.1985.tb08803.x (Lundbeck Ais, 1985).
Where a name gives a salt, the structure may show the parent alone.

By UniProt entry, the sequences of proteins in these tests, tags left out.
UniProt P23977, whole entry: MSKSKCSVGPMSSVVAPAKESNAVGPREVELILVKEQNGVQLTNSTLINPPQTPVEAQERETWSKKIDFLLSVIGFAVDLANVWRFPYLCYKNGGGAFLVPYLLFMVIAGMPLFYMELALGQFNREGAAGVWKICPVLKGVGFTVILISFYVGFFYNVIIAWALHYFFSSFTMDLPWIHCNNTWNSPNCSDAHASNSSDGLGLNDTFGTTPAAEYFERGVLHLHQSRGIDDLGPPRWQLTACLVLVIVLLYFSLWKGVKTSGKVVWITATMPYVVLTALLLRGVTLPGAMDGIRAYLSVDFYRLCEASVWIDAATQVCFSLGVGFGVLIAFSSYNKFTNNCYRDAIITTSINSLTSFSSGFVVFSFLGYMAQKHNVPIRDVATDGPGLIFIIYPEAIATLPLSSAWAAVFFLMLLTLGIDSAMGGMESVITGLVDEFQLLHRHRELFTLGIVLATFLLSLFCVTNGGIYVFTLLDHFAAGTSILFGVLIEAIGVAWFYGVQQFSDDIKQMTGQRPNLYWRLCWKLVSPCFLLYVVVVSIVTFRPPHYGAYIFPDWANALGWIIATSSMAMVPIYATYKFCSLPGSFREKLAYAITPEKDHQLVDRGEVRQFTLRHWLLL
UniProt P31652, whole entry: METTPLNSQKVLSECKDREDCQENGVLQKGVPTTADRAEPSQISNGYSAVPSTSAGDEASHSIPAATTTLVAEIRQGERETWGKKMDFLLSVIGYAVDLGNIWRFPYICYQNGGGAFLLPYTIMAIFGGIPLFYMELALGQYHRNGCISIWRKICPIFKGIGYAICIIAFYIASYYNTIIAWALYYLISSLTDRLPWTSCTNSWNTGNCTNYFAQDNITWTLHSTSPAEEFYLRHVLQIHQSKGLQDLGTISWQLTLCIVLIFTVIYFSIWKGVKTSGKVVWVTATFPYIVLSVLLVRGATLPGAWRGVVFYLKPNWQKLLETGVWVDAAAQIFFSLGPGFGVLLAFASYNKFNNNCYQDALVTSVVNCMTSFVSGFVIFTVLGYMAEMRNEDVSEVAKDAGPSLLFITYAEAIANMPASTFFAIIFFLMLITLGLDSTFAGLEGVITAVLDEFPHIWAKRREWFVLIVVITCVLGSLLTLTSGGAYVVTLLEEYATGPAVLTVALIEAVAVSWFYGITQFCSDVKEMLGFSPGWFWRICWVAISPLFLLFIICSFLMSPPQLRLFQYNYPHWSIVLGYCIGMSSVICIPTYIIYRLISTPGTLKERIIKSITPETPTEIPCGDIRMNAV

Key:
[1] = molecular target: Sodium-dependent dopamine transporter (Rattus norvegicus, UniProt P23977)
[2] = molecular target: Sodium-dependent serotonin transporter (Rattus norvegicus, UniProt P31652)

SMILES	Ki [1] [nM]	Ki [2] [nM]
CNCCC(Oc1ccccc1OC)c1ccccc1 (stereo not drawn) [3-(2-methoxyphenoxy)-N-methyl-3-phenylpropan-1-amine]	560	610
CN(C)CCCC1(c2ccc(F)cc2)OCc2cc(C#N)ccc21 (stereo not drawn) [CITALOPRAM HYDROBROMIDE]	> 10000	
